Article PMC9020777

Protein sequences, listed by entry. Tags and fused reporters are not part of them.
mCerulean3-BCL-XL (human), Q07817, UniProt Q07817, whole entry: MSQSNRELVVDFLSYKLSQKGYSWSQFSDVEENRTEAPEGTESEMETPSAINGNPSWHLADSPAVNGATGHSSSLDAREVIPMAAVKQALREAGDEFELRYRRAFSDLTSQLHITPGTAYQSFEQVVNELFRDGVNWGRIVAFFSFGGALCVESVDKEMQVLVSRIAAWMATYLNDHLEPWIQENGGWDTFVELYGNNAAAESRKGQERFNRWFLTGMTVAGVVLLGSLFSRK
mCerulean3-MCL-1 (human), Q07820, UniProt Q07820, whole entry: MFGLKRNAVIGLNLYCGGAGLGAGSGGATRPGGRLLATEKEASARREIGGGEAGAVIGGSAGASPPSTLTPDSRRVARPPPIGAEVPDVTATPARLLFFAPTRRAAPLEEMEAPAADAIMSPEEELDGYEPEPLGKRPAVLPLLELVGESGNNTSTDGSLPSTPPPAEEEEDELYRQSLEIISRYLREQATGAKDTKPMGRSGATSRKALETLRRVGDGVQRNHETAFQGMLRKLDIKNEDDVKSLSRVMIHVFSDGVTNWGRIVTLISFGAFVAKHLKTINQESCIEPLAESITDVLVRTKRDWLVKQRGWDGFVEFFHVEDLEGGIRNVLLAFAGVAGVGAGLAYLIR
mCerulean3-BCL-2 (human), P10415, UniProt P10415, whole entry: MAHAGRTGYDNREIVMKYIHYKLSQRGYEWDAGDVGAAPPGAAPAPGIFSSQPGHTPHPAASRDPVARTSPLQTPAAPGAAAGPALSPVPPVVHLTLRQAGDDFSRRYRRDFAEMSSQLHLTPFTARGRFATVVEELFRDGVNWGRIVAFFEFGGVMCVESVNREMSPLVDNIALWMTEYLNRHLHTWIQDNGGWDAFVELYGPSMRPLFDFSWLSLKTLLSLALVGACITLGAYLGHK

Assays:
Test in all cases: FRET or BRET
Conditions in all cases: remark: other sources report otherwise
[1] = target: mCerulean3-BCL-XL (human), Q07817
[2] = target: mCerulean3-MCL-1 (human), Q07820
[3] = target: mCerulean3-BCL-2 (human), P10415

B1: Venus-PUMA, Q9BXH1 1-193 (natural protein)
chain: MARARQEGSSPEPVEGLARDGPRPFPLGRLVPSAVSCGLCEPGLAAAPAAPTLLPAAYLCAPTAPPAVTAALGGSRWPGGPRSRPRGPRPDGPQPSLSLAEQHLESPVPSAPGALAGGPTQAAPGVRGEEEQWAREIGAQLRRMADDLNAQYERRRQEEQQRHRPSPWRVLYNLIMGLLPLPRGHRAPEMEPN
B1 was tested. Which Kd [1] did it give?
The Kd was 4 µM.

What about the Kd [2] of the same binder?
The Kd was 2 µM.

What about the Kd [3] of the same binder?
Its Kd is 4 µM.
